# Binding of CDR-mutated scFvs to a peptide of the spike HR2 region

Target: peptide PDVDLGDISGINAS, taken from heptad repeat 2 (HR2) of SARS-CoV-2 spike.

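In library AAYL51, one, two or three CDR residues were substituted; doubles and triples were drawn at random. Affinity was read by AlphaSeq, a pooled yeast mating assay with surface-displayed partners. The frequency of each diploid, read from paired DNA barcodes, reflects how well the two displayed proteins bind. A regression on co-assayed BCL2-family reference pairs converts the normalised counts of each replicate to an apparent Kd. The assay was run in three technical replicates.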

Each scFv is VL, a 15-residue (Gly4Ser)3 linker, VH, as in the parent Ab-91, and differs from it in the CDRs of the heavy chain only.
VL: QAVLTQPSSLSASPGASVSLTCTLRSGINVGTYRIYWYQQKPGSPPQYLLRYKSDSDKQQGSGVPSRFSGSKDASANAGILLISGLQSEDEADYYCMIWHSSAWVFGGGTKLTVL
VH: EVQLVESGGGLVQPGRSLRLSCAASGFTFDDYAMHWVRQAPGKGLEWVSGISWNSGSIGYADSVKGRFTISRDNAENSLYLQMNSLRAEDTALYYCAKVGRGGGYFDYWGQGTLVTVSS

Each variant is given by its three heavy chain CDRs, as the data file delimits them; those of the parent are GFTFDDYAMH, GISWNSGSIGYADSVK, VGRGGGYFDY. Every variant below is changed at Y60 of the VH (sequential numbering). Values are apparent Kd, the geometric mean of the replicates that gave a signal; lower means stronger binding. An entry "nd" has no value in the source: the pair was not observed among the diploids in any replicate. This suggests poor binding but is not conclusive. The list is sorted by this average, lowest first, undetected variants last.

With GFTFDDYAMH / GISWNSGSKGVADSVK / VGRGGGYFDY the result was 140 nM (3 of 3 replicates).
With GFPFDDYAMH / GISWNSGSIGLADSVI / VGRGGGYFDY the result was 5.7 µM (1 of 3 replicates).
With GFTFDDYAMH / GISWNSGFIGDADSVK / VGRGGGYFDY the result was 8.1 µM (1 of 3 replicates).
With GFTFDDYAMH / GISWNSGSIGVADSVK / WGRGGGYFFY the result was 13 µM (1 of 3 replicates).
With GFTFDDYAMH / GISWNSGSIGTADSVK / PQRGGGYFDY the result was 15 µM (2 of 3 replicates).
With GFDFDDYAMH / GISWNSGSIGAADSVK / HGRGGGYFDY the result was 16 µM (1 of 3 replicates).
With GFTFDDYAMH / GISWNSNSIGAADSVK / VGRGGGYFDY the result was 17 µM (1 of 3 replicates).
With GITFDDYAMH / GISWNWGSIGLADSVK / VGRGGGYFDY the result was 21 µM (3 of 3 replicates).
With GYTFDDYAMH / GKSWNSGSIGLADSVK / VGRGGGYFDY the result was 46 µM (1 of 3 replicates).
With GFTFDDYAMH / GIWWNSISIGGADSVK / VGRGGGYFDY the result was 85 µM (3 of 3 replicates).
With GFTFDDYAMH / GIKWNSGSIGDADSHK / VGRGGGYFDY the result was 100 µM (1 of 3 replicates).
With GFTFDDYAMH / GIAWNSGSIGKADSVK / VGRGGGDFDY the result was 120 µM (3 of 3 replicates).
With GFTFDDYAMH / GISWNSGSIGPADSVK / VGWGGGYFDP the result was 120 µM (2 of 3 replicates).
With GFTFDDYAMH / GISWNSGSIGKCDSVK / VGRGGGYFDY the result was 150 µM (1 of 3 replicates).
With GFTFDDYAMH / GISWNSGSIGTADSVN / NGRGGGYFDY the result was 220 µM (1 of 3 replicates).
With GFTFDDYAMK / GISWNSGSEGPADSVK / VGRGGGYFDY the result was 390 µM (1 of 3 replicates).
With GHTFDDYAMH / GISWNSGSIGQADSVK / VGRGGGYEDY the result was 520 µM (1 of 3 replicates).
With GFGFDDYAMH / GISNNSGSIGVADSVK / VGRGGGYFDY the result was 590 µM (2 of 3 replicates).
With GFTFIDYAMN / GISWNSGSIGEADSVK / VGRGGGYFDY the result was 590 µM (2 of 3 replicates).
With GFTFDDYAMH / GIRWNSGSIGNADSVK / VGRGGNYFDY the result was nd (0 of 3 replicates).
With GFTFDDYAMH / GISWNSGSIGTADSVK / VGRGGGNFDY the result was nd (0 of 3 replicates).
With GFTFDDYAMH / PISWNSGSIGQADSVK / VGRGGGYTDY the result was nd (0 of 3 replicates).
With GFTFFDYWMH / GISWNSGSIGFADSVK / VGRGGGYFDY the result was nd (0 of 3 replicates).
With GFTFDDYAMH / GISWNSKSIGAADSVK / VGRGGGYFGY the result was nd (0 of 3 replicates).
With GFRFDDYAMH / GISWNSGSIGVADSVK / VGRGGGYFQY the result was nd (0 of 3 replicates).
With GFTFDDYAMS / GISWNSGSIGNADSVK / VGRGGGYFDY the result was nd (0 of 3 replicates).
With GGTFDDYAMH / GISWNSGSIGRADSVK / VGRGGGYFEY the result was nd (0 of 3 replicates).
With GFTFDDSAMH / GISWNSGSIGMADSVK / RGRGGGYFDY the result was nd (0 of 3 replicates).
With GFTFDDYAMH / GISWDSGSIGVADSVK / VGRGGGYFHY the result was nd (0 of 3 replicates).
With GFTFDDYAMH / GISWNQGSIGEADSLK / VGRGGGYFDY the result was nd (0 of 3 replicates).
With GFTFDDYAMH / GISWNSGSIGCADSVK / VGRGGGYFDY the result was nd (0 of 3 replicates).
With GFTFDDYAMH / GISWNSVSWGAADSVK / VGRGGGYFDY the result was nd (0 of 3 replicates).
With GFTFDDSAMH / GISWNSGSIGEADSVK / VGRDGGYFDY the result was nd (0 of 3 replicates).
With GFTFDDYAMH / GIPWNSGSIGHADSVK / DGRGGGYFDY the result was nd (0 of 3 replicates).

A selection of 2 entries from above:

The variant GFTFDDYAMH / GISWNSVSWGAADSVK / VGRGGGYFDY gave nd (0 of 3 replicates).
The variant GFTFDDYAMH / GISWNSGSKGVADSVK / VGRGGGYFDY gave 140 nM (3 of 3 replicates).

Empty control strains, which show no peptide, gave a signal in 21% of pairings with library AAYL51; the median was 34 µM and 95% of these signals were weaker than 1.8 µM. No background was subtracted. In this assay the parent's reference entry averaged 72 nM; its copy inside this library read 7.5 nM.

The measurements come from Engelhart et al. 2022 (doi:10.1038/s41597-022-01779-4) through the FLAb antibody collection.